Target: hTRPA1-S873V/T874L (Homo sapiens, UniProt O75762, S873V/T874L)

By UniProt entry, the sequences of proteins in these tests, tags left out.
UniProt O75762, whole entry S873V/T874L: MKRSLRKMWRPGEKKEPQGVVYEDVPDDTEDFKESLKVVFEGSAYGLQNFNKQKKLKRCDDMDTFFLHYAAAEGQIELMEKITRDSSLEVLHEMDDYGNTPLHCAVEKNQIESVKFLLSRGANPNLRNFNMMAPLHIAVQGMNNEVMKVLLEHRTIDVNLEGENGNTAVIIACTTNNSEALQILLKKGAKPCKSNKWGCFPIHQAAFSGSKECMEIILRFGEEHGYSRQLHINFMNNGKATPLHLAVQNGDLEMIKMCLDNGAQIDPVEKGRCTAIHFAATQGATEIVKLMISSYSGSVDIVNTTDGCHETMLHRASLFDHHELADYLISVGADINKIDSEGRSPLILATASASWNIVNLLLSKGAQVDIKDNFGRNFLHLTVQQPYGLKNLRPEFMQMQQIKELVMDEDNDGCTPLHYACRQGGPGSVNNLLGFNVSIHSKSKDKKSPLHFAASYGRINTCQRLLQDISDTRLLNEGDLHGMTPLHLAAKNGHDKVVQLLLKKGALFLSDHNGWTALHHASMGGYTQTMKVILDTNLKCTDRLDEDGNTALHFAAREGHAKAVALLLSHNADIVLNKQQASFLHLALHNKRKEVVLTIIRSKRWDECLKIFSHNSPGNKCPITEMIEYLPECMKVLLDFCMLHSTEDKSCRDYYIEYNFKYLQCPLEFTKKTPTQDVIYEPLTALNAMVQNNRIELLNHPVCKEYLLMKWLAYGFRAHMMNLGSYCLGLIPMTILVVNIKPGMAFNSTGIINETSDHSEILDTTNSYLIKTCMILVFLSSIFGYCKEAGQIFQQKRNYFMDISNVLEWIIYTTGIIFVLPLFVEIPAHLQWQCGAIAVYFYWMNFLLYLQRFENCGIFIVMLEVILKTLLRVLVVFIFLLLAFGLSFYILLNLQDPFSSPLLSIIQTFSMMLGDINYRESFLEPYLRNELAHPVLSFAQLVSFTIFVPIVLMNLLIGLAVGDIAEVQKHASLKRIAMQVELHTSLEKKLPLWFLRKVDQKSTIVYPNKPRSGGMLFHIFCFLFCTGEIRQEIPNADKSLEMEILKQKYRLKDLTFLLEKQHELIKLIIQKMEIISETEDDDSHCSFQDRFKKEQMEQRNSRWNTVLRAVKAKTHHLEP

Row | SMILES | hTRPA1-S873V/T874L IC50 (Inhibition) | EC50 (read-out: hTRPA1-S873V/T874L EC50 (Activation)) [µM]
1 | CC(=NO)/C(C)=C\c1ccc(Cl)cc1 [AP18, (Z)-4-(4-chlorophynyl)-3-methylbut-3-en-2-oxime] | No inhibition | –
2 | CC(C)=CCC/C(C)=C/CC/C(C)=C/CSc1ccccc1C(=O)O [FTS, Farnesyl thiosalicylic acid] | – | 11.8 ± 8.3
